Earlier results, collected in patent publication US20260169011A1, “METHODS AND COMPOSITIONS FOR PROVIDING CUSTOMIZED NUTRITIONAL SUPPLEMENTS” (Vibrant Holdings LLC, priority 2023, published 2026).

Settings: cited from earlier work

Measured: UTL

Vitamin E
1,100 IU/day: Table 18, person one | Table 19, person two | upper tolerable limit

Like-named read-outs stand apart in the source and are kept apart here.
